# Assays:
# M. luteus 10240 = assay: Growth inhibition assay (microdilution MIC); assay type: cell-based, Micrococcus luteus; details: for fold increase in activity against M. luteus versus unmodified peptide: penetratin coupled via thioether bridge
# Protocol: (§1) The minimum inhibitory concentrations (MIC) of the antimicrobial peptides and peptide derivatives were determined in microdilution assays. These used a continuous peptide dilution in sterile flat-bottomed 96-well microtiter plates (polystyrene, Greiner Bio-One GmbH, Frickenhausen, Germany) and a total volume of 100 μL per well. The aqueous peptide or peptidomimetic solutions were diluted with 1% TSB water, to obtain a final concentration of 256 μg/mL. 50 μL of the peptide or peptidomimetic solution was pipetted into the first well of each series and stirred. From this solution, 50 μL was transferred to the second well, stirred and again 50 μL was transferred to the next well, and so on. A double dilution series is obtained, beginning at 256 μg/mL in the first well to 125 ng/mL in the twelfth well. The bacteria, e.g. E. coli BL21 A1, were cultured overnight at 37° C. in nutrient broth (NB, Carl Roth GmbH+Co. KG, Karlsruhe, Germany). 50 μL of a 5×10^6 bacteria/mL suspension in 1% TSB was added to each well of the microtiter plate and thus a final concentration of the peptides or peptidomimetics from 128 μg/mL (well 1) to 62.5 ng/mL (well 12) was established in each series. The plates were incubated at 37° C. for 20 h and then the absorption was measured at 595 nm with a TECAN microtiter plate spectrophotometer (Tecan Trading AG, Mannedorf, Switzerland). The MIC values of all peptides and peptidomimetics were determined in triplicate. Sterile water was used as negative control. The MIC value represents the lowest peptide concentration at which no bacterial growth is observed after an incubation time of 20 h at 37° C.
# (§2) The MIC values of the peptides and peptide derivatives against Escherichia coli BL21 A1 and Micrococcus luteus ATCC 10240 are given in Table 7.
# E. coli BL21 A1 = assay type: cell-based, Escherichia coli; details: BL21, 20 h
# Protocol: as §1, §2
"MIC M. luteus 10240 (M. luteus 10240; 1% TSB, 20 h at 37° C.)",SMILES,"MIC M. luteus 10240 (M. luteus 10240; 10240, 20 h)",MIC E. coli BL21 A1 (E. coli BL21 A1),fold increase in activity against M. luteus versus unmodified peptide (M. luteus 10240)
1 µg/mL,CC[C@H](C)[C@H](NC(=O)[C@H](CCCCN)NC(=O)[C@@H](NC(=O)[C@H](CCC(N)=O)NC(=O)[C@@H](N)CCCNC(=N)N)[C@@H](C)CC)C(=O)N[C@@H](Cc1c[nH]c2ccccc12)C(=O)N[C@@H](Cc1ccccc1)C(=O)N[C@@H](CCC(N)=O)C(=O)N[C@@H](CC(N)=O)C(=O)N[C@@H](CCCNC(=N)N)C(=O)N[C@@H](CCCNC(=N)N)C(=O)N[C@@H](CCSC)C(=O)N[C@@H](CCCCN)C(=O)N[C@@H](Cc1c[nH]c2ccccc12)C(=O)N[C@@H](CCCCN)C(=O)N[C@@H](CCCCN)C(=O)N[C@@H](CSCC(=O)NCC(=O)N[C@@H](CCCCN)C(=O)N1CCC[C@H]1C(=O)N[C@@H](CCCNC(=N)N)C(=O)N1CCC[C@H]1C(=O)N[C@@H](Cc1ccc(O)cc1)C(=O)N[C@@H](CO)C(=O)N1CCC[C@H]1C(=O)N[C@@H](CCCNC(=N)N)C(=O)N1CCC[C@H]1C(=O)N[C@H](C(=O)N[C@@H](CO)C(=O)N[C@@H](Cc1c[nH]cn1)C(=O)N1CCC[C@H]1C(=O)N[C@@H](CCCNC(=N)N)C(=O)N1CCC[C@H]1C(=O)N[C@H](C(=O)N[C@@H](CCCNC(=N)N)C(=O)N[C@H](C(=O)O)C(C)C)[C@@H](C)CC)[C@@H](C)O)C(=O)O [SEQ ID NO. 97],–,–,–
8 µg/mL,CC[C@H](C)[C@H](NC(=O)[C@H](CCCCN)NC(=O)[C@@H](NC(=O)[C@H](CCC(N)=O)NC(=O)[C@@H](N)CCCNC(=N)N)[C@@H](C)CC)C(=O)N[C@@H](Cc1c[nH]c2ccccc12)C(=O)N[C@@H](Cc1ccccc1)C(=O)N[C@@H](CCC(N)=O)C(=O)N[C@@H](CC(N)=O)C(=O)N[C@@H](CCCNC(=N)N)C(=O)N[C@@H](CCCNC(=N)N)C(=O)N[C@@H](CCSC)C(=O)N[C@@H](CCCCN)C(=O)N[C@@H](Cc1c[nH]c2ccccc12)C(=O)N[C@@H](CCCCN)C(=O)N[C@@H](CCCCN)C(=O)N[C@@H](CSCC(=O)NCC(=O)N[C@@H](CC(N)=O)C(=O)N[C@@H](CC(N)=O)C(=O)N[C@@H](CCCNC(=N)N)C(=O)N1CCC[C@H]1C(=O)N[C@H](C(=O)N[C@@H](Cc1ccc(O)cc1)C(=O)N[C@H](C(=O)N1CCC[C@H]1C(=O)N[C@@H](CCC(N)=O)C(=O)N1CCC[C@H]1C(=O)N[C@@H](CCCNC(=N)N)C(=O)N1CCC[C@H]1C(=O)N1CCC[C@H]1C(=O)N[C@@H](Cc1c[nH]cn1)C(=O)N1CCC[C@H]1C(=O)N[C@@H](CCCNC(=N)N)C(=O)N[C@@H](CC(C)C)C(=O)O)[C@@H](C)CC)C(C)C)C(=O)O [SEQ ID NO. 95],–,–,8 fold

# The next lines start with the compound.
SMILES,"MIC M. luteus 10240 (M. luteus 10240; 1% TSB, 20 h at 37° C.)","MIC M. luteus 10240 (M. luteus 10240; 10240, 20 h)",MIC E. coli BL21 A1 (E. coli BL21 A1),fold increase in activity against M. luteus versus unmodified peptide (M. luteus 10240)
CC[C@H](C)[C@H](NC(=O)[C@H](CCCCN)NC(=O)[C@@H](NC(=O)[C@H](CCC(N)=O)NC(=O)[C@@H](N)CCCNC(=N)N)[C@@H](C)CC)C(=O)N[C@@H](Cc1c[nH]c2ccccc12)C(=O)N[C@@H](Cc1ccccc1)C(=O)N[C@@H](CCC(N)=O)C(=O)N[C@@H](CC(N)=O)C(=O)N[C@@H](CCCNC(=N)N)C(=O)N[C@@H](CCCNC(=N)N)C(=O)N[C@@H](CCSC)C(=O)N[C@@H](CCCCN)C(=O)N[C@@H](Cc1c[nH]c2ccccc12)C(=O)N[C@@H](CCCCN)C(=O)N[C@@H](CCCCN)C(=O)N[C@@H](CSCC(=O)N[C@H](C(=O)N[C@@H](CC(=O)O)C(=O)N[C@@H](CCCCN)C(=O)NCC(=O)N[C@@H](CO)C(=O)N[C@@H](Cc1ccc(O)cc1)C(=O)N[C@@H](CC(C)C)C(=O)N1CCC[C@H]1C(=O)N[C@@H](CCCNC(=N)N)C(=O)N1CCC[C@H]1C(=O)N[C@H](C(=O)N1CCC[C@H]1C(=O)N1CCC[C@H]1C(=O)N[C@@H](CCCNC(=N)N)C(=O)N1CCC[C@H]1C(=O)N[C@H](C(=O)N[C@@H](Cc1ccc(O)cc1)C(=O)N[C@@H](CC(N)=O)C(=O)N[C@@H](CCCNC(=N)N)C(=O)N[C@@H](CC(N)=O)C(N)=O)[C@@H](C)CC)[C@@H](C)O)C(C)C)C(=O)O [compound 99],–,4 µg/mL,32 µg/mL,–
CC[C@H](C)[C@H](NC(=O)[C@H](CCCNC(=N)N)NC(=O)[C@H](CCCNC(=N)N)NC(=O)[C@@H]1CCCN1C(=O)[C@@H]1CCCN1C(=O)[C@H](CCCNC(=N)N)NC(=O)[C@@H]1CCCN1C(=O)[C@H](CCCNC(=N)N)NC(=O)[C@@H]1CCCN1C(=O)[C@H](CC(C)C)NC(=O)[C@H](Cc1ccc(O)cc1)NC(=O)[C@@H]1CCCN1C(=O)[C@@H]1CCCN1C(=O)[C@H](CCCCN)NC(=O)[C@H](CC(=O)O)NC(=O)[C@@H](NC(=O)CSC[C@H](NC(=O)[C@H](CCCCN)NC(=O)[C@H](CCCCN)NC(=O)[C@H](Cc1c[nH]c2ccccc12)NC(=O)[C@H](CCCCN)NC(=O)[C@H](CCSC)NC(=O)[C@H](CCCNC(=N)N)NC(=O)[C@H](CCCNC(=N)N)NC(=O)[C@H](CC(N)=O)NC(=O)[C@H](CCC(N)=O)NC(=O)[C@H](Cc1ccccc1)NC(=O)[C@H](Cc1c[nH]c2ccccc12)NC(=O)[C@@H](NC(=O)[C@H](CCCCN)NC(=O)[C@@H](NC(=O)[C@H](CCC(N)=O)NC(=O)[C@@H](N)CCCNC(=N)N)[C@@H](C)CC)[C@@H](C)CC)C(=O)O)C(C)C)C(=O)N[C@@H](Cc1ccc(O)cc1)C(=O)N[C@@H](CC(N)=O)C(=O)N[C@@H](CCCNC(=N)N)C(N)=O [SEQ ID NO. 101],4 µg/mL,–,32 µg/mL,–
CC[C@H](C)[C@H](NC(=O)[C@H](CCCCN)NC(=O)[C@@H](NC(=O)[C@H](CCC(N)=O)NC(=O)[C@@H](N)CCCNC(=N)N)[C@@H](C)CC)C(=O)N[C@@H](Cc1c[nH]c2ccccc12)C(=O)N[C@@H](Cc1ccccc1)C(=O)N[C@@H](CCC(N)=O)C(=O)N[C@@H](CC(N)=O)C(=O)N[C@@H](CCCNC(=N)N)C(=O)N[C@@H](CCCNC(=N)N)C(=O)N[C@@H](CCSC)C(=O)N[C@@H](CCCCN)C(=O)N[C@@H](Cc1c[nH]c2ccccc12)C(=O)N[C@@H](CCCCN)C(=O)N[C@@H](CCCCN)C(=O)N[C@@H](CSCC(=O)N[C@H](C(=O)N[C@@H](CC(=O)O)C(=O)N[C@@H](CCCCN)C(=O)NCC(=O)N[C@@H](CO)C(=O)N[C@@H](Cc1ccc(O)cc1)C(=O)N[C@@H](CC(C)C)C(=O)N1CCC[C@H]1C(=O)N[C@@H](CCCNC(=N)N)C(=O)N1CCC[C@H]1C(=O)N[C@H](C(=O)N1CCC[C@H]1C(=O)N1CCC[C@H]1C(=O)N[C@@H](CCCNC(=N)N)C(=O)N1CCC[C@H]1C(=O)N[C@H](C(=O)N[C@@H](Cc1ccc(O)cc1)C(=O)N[C@@H](CC(N)=O)C(=O)N[C@@H](CCCNC(=N)N)C(=O)N[C@@H](CC(N)=O)C(N)=O)[C@@H](C)CC)[C@@H](C)O)C(C)C)C(=O)O [SEQ ID NO. 99],–,–,–,32 fold
CC[C@H](C)[C@H](NC(=O)[C@H](CCCCN)NC(=O)[C@@H](NC(=O)[C@H](CCC(N)=O)NC(=O)[C@@H](N)CCCNC(=N)N)[C@@H](C)CC)C(=O)N[C@@H](Cc1c[nH]c2ccccc12)C(=O)N[C@@H](Cc1ccccc1)C(=O)N[C@@H](CCC(N)=O)C(=O)N[C@@H](CC(N)=O)C(=O)N[C@@H](CCCNC(=N)N)C(=O)N[C@@H](CCCNC(=N)N)C(=O)N[C@@H](CCSC)C(=O)N[C@@H](CCCCN)C(=O)N[C@@H](Cc1c[nH]c2ccccc12)C(=O)N[C@@H](CCCCN)C(=O)N[C@@H](CCCCN)C(=O)N[C@@H](CSCC(=O)NCC(=O)N[C@@H](CCCCN)C(=O)N1CCC[C@H]1C(=O)N[C@@H](CCCNC(=N)N)C(=O)N1CCC[C@H]1C(=O)N[C@@H](Cc1ccc(O)cc1)C(=O)N[C@@H](CO)C(=O)N1CCC[C@H]1C(=O)N[C@@H](CCCNC(=N)N)C(=O)N1CCC[C@H]1C(=O)N[C@H](C(=O)N[C@@H](CO)C(=O)N[C@@H](Cc1c[nH]cn1)C(=O)N1CCC[C@H]1C(=O)N[C@@H](CCCNC(=N)N)C(=O)N1CCC[C@H]1C(=O)N[C@H](C(=O)N[C@@H](CCCNC(=N)N)C(=O)N[C@H](C(=O)O)C(C)C)[C@@H](C)CC)[C@@H](C)O)C(=O)O [compound 97],–,–,16 µg/mL,–
